According to PMC8113980:
Like-named read-outs stand apart in the source and are kept apart here.

Legend:
[1] = molecular target: Human wildtype tau protein, 441-amino acid isoform (2N4R), nonphosphorylated monomer (human) (UniProt P10636); assay: SPR; ProteOn XPR36, GLC chip; tau monomers and tau fibrils immobilised by amine coupling on parallel surfaces; Aβ1–42 monomer or oligomer-enriched solution diluted to 10 μM and injected for 120 s at 30 μl/min; running buffer 10 mM PBS, 150 mM NaCl, 0.005% Tween-20; KD estimated assuming oligomer concentrations of 4 to 20 nM and an aggregate size of 400 kDa, possibly affected by avidity
[2] = molecular target: Aβ_(1–42) high–molecular-weight oligomers (oligomer-enriched solution) (UniProt P05067); assay: SPR; competition in solution: Aβ1–42 oligomer-enriched solution diluted to 1 μM in PBS, incubated 10 min with tau (up to 100 nM), injected for 120 s over immobilised anti-Aβ antibody 4G8; oligomer-specific signal read at the end of dissociation
[3] = molecular target: Aβ_(1–42) high–molecular-weight oligomers (oligomer-enriched solution) (UniProt P05067); assay: as above; remark: listed apart in the source

| Substance | Kd [1] | IC50 [2] | IC50 [3] |
| --- | --- | --- | --- |
| Aβ_(1–42) high–molecular-weight oligomers (oligomer-enriched solution) (from UniProt P05067 672-713) (complex) | < 1 nM | – | – |
| Human wildtype tau protein, 441-amino acid isoform (2N4R), nonphosphorylated monomer (from UniProt P10636-8 1-441) (natural protein) | – | 3.9 nM | 3.8 nM |
